# Experimental data taken from paper PMC5974090, “A fluorescence anisotropy assay to discover and characterize ligands targeting the maytansine site of tubulin” (Nature Communications, 2018).
# By UniProt entry, the sequences of proteins in these tests, tags left out.
# UniProt Q6B856, whole entry: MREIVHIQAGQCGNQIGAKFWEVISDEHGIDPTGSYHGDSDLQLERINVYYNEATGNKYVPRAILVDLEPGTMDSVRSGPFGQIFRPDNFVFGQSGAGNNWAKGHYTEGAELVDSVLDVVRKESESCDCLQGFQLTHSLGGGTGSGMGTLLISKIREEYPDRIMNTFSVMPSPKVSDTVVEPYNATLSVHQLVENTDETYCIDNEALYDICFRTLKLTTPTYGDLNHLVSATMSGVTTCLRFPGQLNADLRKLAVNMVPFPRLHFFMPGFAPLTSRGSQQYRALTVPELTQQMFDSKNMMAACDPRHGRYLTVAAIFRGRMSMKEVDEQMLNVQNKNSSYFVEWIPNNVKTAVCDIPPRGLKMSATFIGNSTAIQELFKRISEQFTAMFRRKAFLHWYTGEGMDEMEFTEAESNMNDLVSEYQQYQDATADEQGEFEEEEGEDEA
# UniProt P81947, whole entry partner: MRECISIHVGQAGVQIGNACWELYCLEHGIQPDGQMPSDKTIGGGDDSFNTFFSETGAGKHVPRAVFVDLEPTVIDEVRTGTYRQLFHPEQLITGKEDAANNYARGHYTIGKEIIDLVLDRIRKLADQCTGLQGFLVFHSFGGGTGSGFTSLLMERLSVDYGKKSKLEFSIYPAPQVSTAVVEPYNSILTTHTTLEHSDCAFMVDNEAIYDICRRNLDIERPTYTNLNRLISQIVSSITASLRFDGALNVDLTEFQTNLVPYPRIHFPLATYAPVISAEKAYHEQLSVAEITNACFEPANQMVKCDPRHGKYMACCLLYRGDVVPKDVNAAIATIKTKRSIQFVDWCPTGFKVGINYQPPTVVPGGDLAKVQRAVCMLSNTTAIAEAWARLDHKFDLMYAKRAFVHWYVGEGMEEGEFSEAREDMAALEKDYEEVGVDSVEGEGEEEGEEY
# Legend:
# [1] = target: maytansine site of tubulin (Bos taurus, UniProt Q6B856); settings: read-out: Kd from FcMaytansine displacement; 10 nM FcMaytansine, 4 nM tubulin, 25 °C, mean ± SEM; n = 3
# [2] = Interconversion of the C9'-diastereoisomers of M9 in phosphate buffer; format: physicochemical; settings: phosphate buffer pH 7.2
# Protocol: The DM1-lysine conjugate M9 (Fig. 3c) was prepared from DM1 according to literature procedures[22] (for details, see Supplementary Information). The reaction produced two high-performance liquid chromatography (HPLC)-separable, but slowly interconverting, C9’-diastereoisomers (designated as M9A and M9B) in an approximately 1:1 ratio, with full equilibration in phosphate buffer pH 7.2 being observed after 24 h. […] The method used to prepare M9 inevitably leads to two diastereoisomeric products, due to the formation of an additional stereocenter at C9’ in the 1,4-addition of DM1 to the maleimido part of the linker precursor and the inherently non-selective nature of the reaction. However, the interconversion rate between M9A and M9B is sufficiently slow to allow the separate assessment of their tubulin-binding affinities.
SMILES,Kd [1] [nM],time to full equilibration of the interconverting diastereoisomers [2] [h]
"COc1cc2cc(c1Cl)N(C)C(=O)C[C@H](OC(=O)[C@H](C)N(C)C(=O)CCSC1CC(=O)N(C[C@H]3CC[C@H](C(=O)NCCCC[C@H](N)C(=O)O)CC3)C1=O)[C@]1(C)O[C@H]1[C@H](C)[C@@H]1C[C@@](O)(NC(=O)O1)[C@H](OC)/C=C/C=C(\C)C2 (single isomer, unassigned) [M9A]",12.6,24
"COc1cc2cc(c1Cl)N(C)C(=O)C[C@H](OC(=O)[C@H](C)N(C)C(=O)CCSC1CC(=O)N(C[C@H]3CC[C@H](C(=O)NCCCC[C@H](N)C(=O)O)CC3)C1=O)[C@]1(C)O[C@H]1[C@H](C)[C@@H]1C[C@@](O)(NC(=O)O1)[C@H](OC)/C=C/C=C(\C)C2 (single isomer, unassigned) [M9B]",17.5,24
